Test results reported in ChEMBL document CHEMBL1133182, “Biosensor analysis of the interaction between immobilized human serum albumin and drug compounds for prediction of human serum albumin binding levels” (J Med Chem, 2000).

Chains of the proteins cited; added tags and fusions are not shown.
UniProt P02768, whole entry: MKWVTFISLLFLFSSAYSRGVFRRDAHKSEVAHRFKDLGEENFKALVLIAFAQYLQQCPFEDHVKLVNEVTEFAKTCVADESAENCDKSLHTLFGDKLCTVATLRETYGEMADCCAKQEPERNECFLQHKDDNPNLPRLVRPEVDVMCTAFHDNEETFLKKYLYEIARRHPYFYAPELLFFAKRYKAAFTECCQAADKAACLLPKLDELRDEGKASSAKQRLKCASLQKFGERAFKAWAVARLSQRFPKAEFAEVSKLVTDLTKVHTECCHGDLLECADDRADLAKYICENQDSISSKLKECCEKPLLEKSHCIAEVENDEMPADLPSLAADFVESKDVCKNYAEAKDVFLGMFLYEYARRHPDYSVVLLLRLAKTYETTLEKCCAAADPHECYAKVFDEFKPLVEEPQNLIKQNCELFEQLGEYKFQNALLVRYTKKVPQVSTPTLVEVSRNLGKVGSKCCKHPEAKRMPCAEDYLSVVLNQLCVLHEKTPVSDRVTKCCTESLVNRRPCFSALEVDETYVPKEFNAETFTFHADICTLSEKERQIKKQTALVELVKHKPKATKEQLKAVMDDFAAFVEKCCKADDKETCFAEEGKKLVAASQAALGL

Biological target: Albumin (Homo sapiens, UniProt P02768)
Assay: The ability concentration.)

## O=C1NC(=O)C(c2ccccc2)(c2ccccc2)N1 [PHENYTOIN]
  Binding: 63.4%
